From patent US6903183B1, “Compositions and methods for regulation of steroidogenesis” (Texas Tech University Health Services Center, priority 1996, dated 2005)

Tested on: StAR protein
Assay: Synthesis of StAR protein in MA-10 cells after CRH, dbcAMP or hCG
Format: cell-based, mouse
Excerpt: The maximum response to dbcAMP occurred at 6 hr post stimulation.

hCG: human chorionic gonadotropin
synthesis of the StAR protein: significantly lower than those seen with CRH or dbcAMP
